Laboratory results reported in ChEMBL document CHEMBL3758105 (J Med Chem, 2016).

Protein sequences, listed by entry. Tags and fused reporters are not part of them. Lines headed by an entry give the natural chain unless they say otherwise; changes in a name come on top.
UniProt P78536: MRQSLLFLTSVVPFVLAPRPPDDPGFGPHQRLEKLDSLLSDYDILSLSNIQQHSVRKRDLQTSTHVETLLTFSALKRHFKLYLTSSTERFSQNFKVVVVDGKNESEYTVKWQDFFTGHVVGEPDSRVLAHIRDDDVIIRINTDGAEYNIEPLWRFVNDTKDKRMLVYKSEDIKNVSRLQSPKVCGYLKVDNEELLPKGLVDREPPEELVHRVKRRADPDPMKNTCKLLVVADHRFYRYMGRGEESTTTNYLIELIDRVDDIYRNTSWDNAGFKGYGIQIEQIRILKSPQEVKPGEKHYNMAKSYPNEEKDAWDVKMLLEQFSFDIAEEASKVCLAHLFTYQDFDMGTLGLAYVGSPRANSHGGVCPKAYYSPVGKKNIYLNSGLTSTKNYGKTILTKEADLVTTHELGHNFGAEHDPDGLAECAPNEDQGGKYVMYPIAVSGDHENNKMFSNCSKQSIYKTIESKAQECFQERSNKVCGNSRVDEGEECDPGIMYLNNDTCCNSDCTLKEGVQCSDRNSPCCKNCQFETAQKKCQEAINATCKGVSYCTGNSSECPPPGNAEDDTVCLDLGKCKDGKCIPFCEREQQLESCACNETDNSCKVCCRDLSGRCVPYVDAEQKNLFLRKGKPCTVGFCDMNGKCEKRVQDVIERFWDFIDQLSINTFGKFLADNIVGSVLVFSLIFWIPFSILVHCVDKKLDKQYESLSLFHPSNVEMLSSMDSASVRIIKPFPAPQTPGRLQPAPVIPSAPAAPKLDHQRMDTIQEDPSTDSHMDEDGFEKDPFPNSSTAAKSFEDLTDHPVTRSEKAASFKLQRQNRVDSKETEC
UniProt P09238: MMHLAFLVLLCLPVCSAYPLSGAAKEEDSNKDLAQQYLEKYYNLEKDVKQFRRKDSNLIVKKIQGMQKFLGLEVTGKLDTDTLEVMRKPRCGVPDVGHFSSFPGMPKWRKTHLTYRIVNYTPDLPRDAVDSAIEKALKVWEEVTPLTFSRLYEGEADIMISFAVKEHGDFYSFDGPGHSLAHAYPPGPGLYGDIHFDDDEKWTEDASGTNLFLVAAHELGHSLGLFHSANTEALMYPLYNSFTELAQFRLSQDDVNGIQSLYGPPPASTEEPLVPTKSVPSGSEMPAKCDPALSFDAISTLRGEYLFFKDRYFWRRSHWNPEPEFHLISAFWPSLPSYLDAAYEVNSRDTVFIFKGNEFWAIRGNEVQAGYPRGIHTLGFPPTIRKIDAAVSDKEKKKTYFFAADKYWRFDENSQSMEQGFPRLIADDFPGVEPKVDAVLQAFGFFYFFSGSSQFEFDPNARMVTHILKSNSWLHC

Experiments:
[1] = target: Disintegrin and metalloproteinase domain-containing protein 17 (Homo sapiens, UniProt P78536); assay: Inhibition of TACE (unknown origin) using Mca-Pro-Leu-Ala-Gln-Ala-Val-Dpa-Arg-Ser-Ser-Ser-Arg-NH2 as substrate
[2] = target: T1, A disintegrin and metalloproteinase with thrombospondin motifs 5 (Homo sapiens, UniProt Q9UNA0); assay: Inhibition of full length recombinant ADAMTS5 (unknown origin) expressed in insect Sf9 cells after 6 hrs by alkaline phosphatase-based assay
T1 sequence (Q9UNA0 whole entry): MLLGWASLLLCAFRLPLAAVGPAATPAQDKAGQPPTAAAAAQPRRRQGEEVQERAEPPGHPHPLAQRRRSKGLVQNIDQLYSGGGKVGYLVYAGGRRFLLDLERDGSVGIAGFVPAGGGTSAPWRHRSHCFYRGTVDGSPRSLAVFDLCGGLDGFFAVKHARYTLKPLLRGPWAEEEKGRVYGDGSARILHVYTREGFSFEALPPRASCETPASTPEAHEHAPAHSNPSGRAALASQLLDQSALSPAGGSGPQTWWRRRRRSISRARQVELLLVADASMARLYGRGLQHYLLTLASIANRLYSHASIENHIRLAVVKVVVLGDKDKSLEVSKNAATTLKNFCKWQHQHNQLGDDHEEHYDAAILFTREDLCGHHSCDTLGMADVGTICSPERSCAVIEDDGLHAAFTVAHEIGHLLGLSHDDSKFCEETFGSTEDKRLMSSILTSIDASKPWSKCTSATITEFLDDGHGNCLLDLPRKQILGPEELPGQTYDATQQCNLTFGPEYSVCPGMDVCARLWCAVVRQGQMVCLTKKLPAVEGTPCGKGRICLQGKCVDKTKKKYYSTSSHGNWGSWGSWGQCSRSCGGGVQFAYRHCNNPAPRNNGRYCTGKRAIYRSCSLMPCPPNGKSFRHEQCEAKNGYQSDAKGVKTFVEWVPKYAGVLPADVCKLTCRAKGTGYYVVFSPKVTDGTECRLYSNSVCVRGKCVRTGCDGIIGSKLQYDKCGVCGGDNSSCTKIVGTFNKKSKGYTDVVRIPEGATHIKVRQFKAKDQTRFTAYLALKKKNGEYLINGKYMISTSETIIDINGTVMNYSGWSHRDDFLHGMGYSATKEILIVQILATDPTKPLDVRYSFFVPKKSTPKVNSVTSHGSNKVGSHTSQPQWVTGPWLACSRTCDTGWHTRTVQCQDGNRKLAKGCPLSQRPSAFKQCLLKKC

Stromelysin-2 = Stromelysin-2 (Homo sapiens, UniProt P09238); assay: Inhibition of recombinant human MMP10 catalytic domain using MCA-Arg-Pro-Leu-Gly-Leu-Dpa-Ala-Arg-Glu-Arg-NH2 as substrate preincubated for 60 mins followed by substrate addition by fluorescence assay

Measured: IC50

CNC(=O)[C@@H](NC(=O)[C@H](CC(C)C)[C@H](O)C(=O)NO)C(C)(C)C
10 µM: [1] | [2] | Stromelysin-2
